We go through 59 compounds from PubChem BioAssay AID1778 (Sanford-Burnham Center for Chemical Genomics, 2009).

The chains behind the UniProt entries cited, without tags or fusion partners. Where a name states a change or a piece, a line headed by the entry shows the natural chain unless it says otherwise.
UniProt P41145: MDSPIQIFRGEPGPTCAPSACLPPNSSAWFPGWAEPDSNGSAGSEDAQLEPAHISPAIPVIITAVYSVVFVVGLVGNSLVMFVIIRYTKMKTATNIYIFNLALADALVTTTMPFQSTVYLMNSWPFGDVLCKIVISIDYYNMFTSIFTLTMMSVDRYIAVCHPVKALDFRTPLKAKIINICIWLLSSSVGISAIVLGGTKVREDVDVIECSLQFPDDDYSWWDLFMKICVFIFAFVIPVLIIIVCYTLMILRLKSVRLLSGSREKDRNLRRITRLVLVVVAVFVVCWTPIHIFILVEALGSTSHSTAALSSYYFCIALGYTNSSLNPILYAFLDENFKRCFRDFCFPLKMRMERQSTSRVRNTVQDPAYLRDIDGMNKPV

Some of the results follow. Potency and affinity values are given separately. Calls of active or inactive are those of the source. Cut-off read from the data, not from the text of the source: active = inhibition above about 50%; inactive = the rest.

The test concerns the target Kappa-type opioid receptor (Homo sapiens) (UniProt P41145). Put plainly: KOR antagonists, beta-arrestin recruitment, cell-based, luminescence, uHTS (AID 1778). The note with it: antagonist mode, at 10 µM, hits give high values. For orientation: Arrestin recruitment assays detect the binding of arrestin to an activated receptor.
As usually defined, the inhibition is the change of the read-out against control, counted positive when it falls. For the compound `Cc1ccc(/C=N\NC(=O)Cn2c(C)nc3ccccc32)o1`, the inhibition is inactive: -5.3%.
With `CCC(=O)NC(/C=C/c1ccccc1)c1cc([N+](=O)[O-])c2cccnc2c1O` (centres undefined), the inhibition was inactive: 26.9%.
Regarding `Cn1c(=O)c2c(ncn2CC(=O)Nc2ccc3c(c2)OCO3)n(C)c1=O`, the inhibition is inactive: -14.2%.
Turning to `O=C1NCN(c2ccccc2)C12CCN(c1nnnn1-c1ccccc1)CC2`, the inhibition is inactive: -3.8%.
With `CN(C)C(=O)Cn1c(SCC(=O)N2CCCc3ccccc32)nc2ccccc21`, the inhibition was inactive: -9.3%.
As to `COc1cccc(C(=O)CSc2nc3ccccc3n2CC(=O)N(C(C)C)C(C)C)c1`, the inhibition is inactive: 4.6%.
In the case of `CC(C)Sc1nc2ccccc2n1CC(=O)NCc1ccc2c(c1)OCO2`, the inhibition was inactive: 25.1%.
For the compound `Cn1c(=O)n(Cc2ccc(F)cc2)c(=O)c2c1nc1n2CCN1Cc1ccco1`, the inhibition is inactive: -15.2%.
In the case of `CCOC(=O)CNC(=S)N1CCn2c(nc3ccccc32)C1`, the inhibition was inactive: 35.8%.
With `O=C(Cn1c(-c2ccccn2)nc2ccccc21)N/N=C/c1cccnc1`, the inhibition was inactive: 25.1%.
Regarding `Cc1nc2ccccc2n1CC(=O)NCc1ccccc1`, the inhibition was inactive: -31.6%.
As for `CCOC(=O)C1CCN(C(=O)CC2C(=O)N(Cc3ccccc3)C(C)c3nc4ccccc4n32)CC1` (centres undefined), the inhibition is active: 56%.
Regarding `O=C(C1CCN(S(=O)(=O)c2cnc[nH]2)CC1)N1CCn2c1nc1ccccc12`, the inhibition is inactive: 9.8%.
As to `Cn1c(=O)c2c(ncn2CC(=O)N/N=C/C=C/c2ccco2)n(C)c1=O`, the inhibition was inactive: 8.9%.
As for `Cn1c(=O)c2c(ncn2CC(=O)N/N=C/c2cn[nH]c2-c2ccc(F)cc2)n(C)c1=O`, the figure is inactive: -18.1%.
As for `Fc1ccc2c(c1)nnn2C1CCN(Cc2nnnn2C2CCCCC2)CC1`, the inhibition is inactive: -0.1%.
For `COC(CNC(=O)CC1C(=O)N(Cc2ccccc2)C(C)c2nc3ccccc3n21)OC` (centres undefined), the inhibition is inactive: 1.5%.
`NNC(=O)Cn1c(COc2ccc(Cl)cc2)nc2ccccc21`: the inhibition is inactive: -10.6%.
For the compound `N=c1n(CCN2CCOCC2)c2ccccc2n1CC(O)COc1ccccc1` (centres undefined), the inhibition was inactive: -31.6%.
`Cc1ccc2c(c1)C1CN(C)CCC1N2C(=O)c1cn(-c2ccccc2)nc1-c1ccccc1` (centres undefined): the inhibition was inactive: 4.6%.
For the compound `Nc1nonc1-c1nc2ccccc2n1CC(=O)N/N=C/c1ccc(-c2cccc(C(=O)O)c2)o1`, the inhibition is inactive: -26.8%.
For `CCOC(=O)c1ccccc1NC(=O)Cn1cnc2c1c(=O)n(C)c(=O)n2C` the value was inactive: -2.4%; for `NC(=O)Cn1c(-c2nonc2N)nc2ccccc21`, inactive: -14.4%.
In the case of `COCCN1CCn2c(nc3cc(NC(=O)NC4CCCCC4)ccc32)C1`, the inhibition is inactive: 49.3%.
In the case of `O=C(Cn1cnc2ccccc21)N/N=C/c1ccc([N+](=O)[O-])cc1`, the inhibition was inactive: 26.2%.
Regarding `O=C(O)COc1ccc([As](=O)(O)O)cc1[N+](=O)[O-]`, the inhibition is inactive: 14.9%.
Turning to `Nc1ccccc1[As](=O)(O)c1ccccc1`, the inhibition is inactive: 19.6%.
With `Cc1nc2ccccc2n1C1CC(=O)N(N(C)C)C1=O` (centres undefined), the inhibition was inactive: -9.9%.
As for `CC(=O)Nc1nc2ccccc2n1CCN1CCOCC1`, the figure is inactive: 9.2%.
Regarding `CCOC(=O)C1=C(Cn2cnc3ccccc32)NC(=O)NC1c1ccc(OC)cc1` (centres undefined), the inhibition was inactive: -10.4%.
Turning to `CC(=O)OCCNC(=O)Cn1cnc2c1c(=O)n(C)c(=O)n2C`, the inhibition was inactive: 24.6%.
For `Cc1cccc(C)c1NC(=O)Cn1cnc2c(=O)n(C)c(=O)n(C)c21`, the inhibition is inactive: -23.7%.
Take `CCCCNC(=O)Cn1c(=O)n(C)c2ccccc21`: the inhibition is inactive: 8.9%.
For `NC(=O)Nc1ccc([As](=O)(O)O)cc1`, the inhibition is inactive: 29.1%.
As for `Cn1c(=O)c2c(ncn2CC(=O)N(Cc2ccccc2)c2ccccn2)n(C)c1=O`, the inhibition is inactive: 34.8%.
As for `CCN(CC)CCn1c(NCc2ccc(C)o2)nc2ccccc21`, the inhibition was inactive: 5.6%.
With `O=C(Nc1nc2ccccc2n1CCN1CCCC1)C1CCCCC1`, the inhibition was inactive: 16.4%.
As for `COc1ccc(N2CCn3c2nc2c3c(=O)n(CCN3CCOCC3)c(=O)n2C)cc1`, the figure is inactive: -29.4%; as for `CCC(C)NC(=O)Cn1c(COc2ccc(Cl)cc2Cl)nc2ccccc21` (centres undefined), inactive: 1.9%; as for `CCC(C)[C@H](NC(=O)N1CCn2c1nc1ccccc12)C(=O)NCc1ccc(OC)cc1` (some centres undefined), inactive: 15%.
On to `Cn1c(=O)[nH]c(=O)c2c1ncn2CCN1CCOCC1`, for which the inhibition is inactive: 14.6%.
For `Cc1nn2c3ccccc3n(CCN3CCCCC3)c2nc1=O` the value was inactive: 11.6%; for `FC(F)(F)c1ccc2c(c1)ncn2C1CCN(Cc2nnnn2C2CCCCC2)CC1`, inactive: -25%; for `CC1Cc2ccccc2N1C(=O)CSc1nc2ccccc2n1CC(=O)N1CCOCC1` (centres undefined), inactive: 21.4%.
On to `Nc1nc2ccccc2n1CCN1CCCC1`, for which the inhibition was inactive: 18.8%.
As for `CC(C)NC(=S)N1CCn2c(nc3ccccc32)C1`, the inhibition is inactive: 27.8%.
Turning to `O=C(CCCCCNC(=O)N1CCn2c1nc1ccccc12)NCc1ccc(Cl)cc1`, the inhibition is inactive: -26.1%.
Regarding `COc1ccc(CNC(=O)[C@H](CCSC)NC(=O)N2CCn3c2nc2ccccc23)cc1`, the inhibition is inactive: -13.7%.
Turning to `CCOC(=O)c1ccc(N2C(=O)CC(N3CCC(Nc4ccc(F)cc4)CC3)C2=O)cc1` (centres undefined), the inhibition is inactive: 4.7%.
Take `O=C(Cn1cnc2ccccc21)N/N=C/c1ccccc1[N+](=O)[O-]`: the inhibition was inactive: -3.2%.
As for `O=C(CSc1nc2ccccc2n1CC(=O)N1CCCC1)Nc1nccs1`, the inhibition is inactive: 21.8%.
For the compound `O=C(Nc1ccccc1)N1CCn2c1nc1ccccc12`, the inhibition was inactive: 22.2%.
As to `CCOP1(=S)c2c(C)nn(CCC#N)c2N=C(c2ccc(F)cc2)N1C` (centres undefined), the inhibition is inactive: 6.1%.
Take `CN(C(=O)Cc1ccccc1)[C@@H]1CC[C@]2(CCCO2)C[C@H]1N1CCCC1`: the inhibition is inactive: -1.9%.
`Cn1c(=O)c2c(nc(CN3CCN(c4ccccc4F)CC3)n2CCN2CCOCC2)n(C)c1=O`: the inhibition was inactive: 15.3%.
On to `Fc1ccc2c(c1)nnn2C1CCN(Cc2c(Cl)cccc2Cl)CC1`, for which the inhibition was inactive: 31.3%.
On to `CC(C)[C@H](NC(=O)N1CCn2c1nc1ccccc12)C(=O)NCc1ccco1`, for which the inhibition is inactive: -30.1%.
Turning to `O=[N+]([O-])c1ccc2c(c1)nnn2O`, the inhibition was inactive: 11.2%.
As to `Cc1ccc2c(c1)C1CN(C)CCC1N2C(=S)NC(=O)c1ccc(Br)cc1` (centres undefined), the inhibition is inactive: 36.2%.
